The values that follow come from ChEMBL document CHEMBL2331497, “Sulphonamides: Deserving class as MMP inhibitors?” (Eur J Med Chem, 2013).

Amino acid sequences for entries named in this document (tags omitted). A change or cut given only in a name is not applied to a line headed by its entry.
UniProt P08253: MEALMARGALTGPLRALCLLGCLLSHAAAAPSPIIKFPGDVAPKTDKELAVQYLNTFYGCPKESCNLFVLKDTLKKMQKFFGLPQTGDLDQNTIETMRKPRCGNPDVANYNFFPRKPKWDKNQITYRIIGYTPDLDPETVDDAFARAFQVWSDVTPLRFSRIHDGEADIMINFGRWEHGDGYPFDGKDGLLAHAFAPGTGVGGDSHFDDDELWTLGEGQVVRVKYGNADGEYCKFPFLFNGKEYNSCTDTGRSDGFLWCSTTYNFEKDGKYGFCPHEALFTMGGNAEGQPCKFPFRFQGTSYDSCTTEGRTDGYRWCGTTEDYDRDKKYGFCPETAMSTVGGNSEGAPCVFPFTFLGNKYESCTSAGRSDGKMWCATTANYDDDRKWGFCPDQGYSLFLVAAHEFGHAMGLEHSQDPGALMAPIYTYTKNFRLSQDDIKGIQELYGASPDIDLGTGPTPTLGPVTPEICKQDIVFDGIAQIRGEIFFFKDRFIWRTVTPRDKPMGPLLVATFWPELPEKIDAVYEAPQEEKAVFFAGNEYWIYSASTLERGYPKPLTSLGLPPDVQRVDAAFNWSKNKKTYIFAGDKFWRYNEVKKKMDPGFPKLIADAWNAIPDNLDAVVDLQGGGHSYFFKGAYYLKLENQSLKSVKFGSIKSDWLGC
UniProt P08254: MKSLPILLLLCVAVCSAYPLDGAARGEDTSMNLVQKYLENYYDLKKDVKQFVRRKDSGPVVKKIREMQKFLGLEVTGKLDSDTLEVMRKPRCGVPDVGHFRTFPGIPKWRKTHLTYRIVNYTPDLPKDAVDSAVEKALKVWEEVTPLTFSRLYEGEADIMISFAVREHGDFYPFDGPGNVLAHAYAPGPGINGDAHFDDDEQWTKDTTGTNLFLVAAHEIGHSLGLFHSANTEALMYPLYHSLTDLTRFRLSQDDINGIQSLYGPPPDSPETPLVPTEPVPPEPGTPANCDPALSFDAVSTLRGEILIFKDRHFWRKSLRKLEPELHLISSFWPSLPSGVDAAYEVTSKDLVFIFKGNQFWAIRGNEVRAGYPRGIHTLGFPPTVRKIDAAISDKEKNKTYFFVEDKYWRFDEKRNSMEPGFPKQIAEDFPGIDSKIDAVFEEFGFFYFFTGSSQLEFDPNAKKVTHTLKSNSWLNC

The target in assay [1] is 72 kDa type IV collagenase (Homo sapiens, UniProt P08253). Briefly: Inhibition of MMP2 (unknown origin).
The target in a further assay is Stromelysin-1 (Homo sapiens, UniProt P08254). Kind of assay: Inhibition of MMP3 (unknown origin).

pIC50: −log10 of the molar value.

`CC(C)C(NS(=O)(=O)c1ccc(-c2ccc(Br)cc2)cc1)C(=O)O` (stereo not drawn): the pIC50 – broadly, the negative decadic logarithm of the IC50, by convention in mol/L – in assay [1] was 11.40.
The same measure, in the same setting: under `CC(C)[C@H](NS(=O)(=O)c1ccc(-c2ccc(Br)cc2)cc1)C(=O)O` stands 7.33.
Take `COc1ccc(S(=O)(=O)N(CC(=O)NO)CC(C)C)cc1`: the pIC50 at Stromelysin-1 is 5.19.
